The list shows a part of the results, in another mix than the full data. Activity calls are given as the source filed them. Cut-off read from the data, not from the text of the source: active = potentiation above about 50%; inconclusive = mostly about 30% to 49%; inactive = weaker than that.
These compounds were tested against D(2) dopamine receptor (Homo sapiens) (UniProt P14416) (assay: Beta-Arrestin HTS for Positive Allosteric Modulators of the Human D2 Dopamine Receptor: Potentiators). Details: DiscoveRx D2 beta-arrestin cells, luminescence, 90 min; hits give high values; 100% = 57 uM dopamine signal.
Excerpt: There is great interest in identifying small molecule ligands for G-protein coupled receptors (GPCRs) as nearly 50% of all FDA-approved drugs target these important receptor proteins. […] Amongst the dopamine receptors (DARs), the D2 is arguably one of the most validated drug targets in neurology and psychiatry. For instance, all receptor-based antiparkinsonian drugs primarily work via stimulating the D2 DAR, whereas all FDA-approved antipsychotic agents are antagonists of this receptor. The D2 DAR is also therapeutically targeted in other disorders such as restless legs syndrome, tardive dyskinesia, Tourette's syndrome, and hyperprolactinemia.
To this end, a miniaturized qHTS screen was developed to be screened against the Molecular Libraries Small Molecule Repository (MLSMR). This assay seeks to identify potentiators against the D2 DAR.
NIH Molecular Libraries Probe Production Network [MLPCN] […]
DiscoveRx D2 cells were thawed from frozen stock and seeded at 2,100 cells/ 3 uL/well media (DiscoveRx Plating Reagent 2) with MultiDrop Combi dispenser (Thermo Scientific, Logan, UT) onto white tissue culture treated 1536-well Aurora plates (Brooks Automation, Chelmsford, MA) and allowed to attach overnight at 37 deg C, 5% CO2. […] The plates were incubated at ambient temperature for 1 hour and then the luminescent signal was read on ViewLux plate reader (PerkinElmer, Waltham, MA).

The chains behind the UniProt entries cited, without tags or fusion partners.
UniProt P14416, whole entry: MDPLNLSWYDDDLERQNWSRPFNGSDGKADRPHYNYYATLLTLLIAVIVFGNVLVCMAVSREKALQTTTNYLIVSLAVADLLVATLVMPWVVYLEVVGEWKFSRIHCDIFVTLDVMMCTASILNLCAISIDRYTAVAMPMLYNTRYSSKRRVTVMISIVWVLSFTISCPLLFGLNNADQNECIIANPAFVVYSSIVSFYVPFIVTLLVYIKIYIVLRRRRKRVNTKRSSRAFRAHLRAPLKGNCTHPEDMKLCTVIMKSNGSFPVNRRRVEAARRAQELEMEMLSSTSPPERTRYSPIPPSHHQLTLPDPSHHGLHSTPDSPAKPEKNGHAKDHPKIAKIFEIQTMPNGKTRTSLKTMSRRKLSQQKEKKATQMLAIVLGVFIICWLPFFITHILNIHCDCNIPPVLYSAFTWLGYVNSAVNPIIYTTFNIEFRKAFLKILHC

| SMILES | potentiation |
| --- | --- |
| CCc1ccc(OP(C)(=O)Nc2cccnc2)cc1 (stereo unspecified) | inactive: -16.6% |

Reference: PubChem BioAssay AID624464 (National Center for Advancing Translational Sciences (NCATS), 2012)
